# Yeast mating assay 2: variants of the scFv Ab-95

Antigen: PDVDLGDISGINAS, a 14-residue peptide of the SARS-CoV-2 spike HR2 region.

Ab-95 is the parent antibody, in scFv form: VH, then the linker GGGGSGGGGSGGGGS, then VL. The heavy chain is unchanged in all variants.
VH: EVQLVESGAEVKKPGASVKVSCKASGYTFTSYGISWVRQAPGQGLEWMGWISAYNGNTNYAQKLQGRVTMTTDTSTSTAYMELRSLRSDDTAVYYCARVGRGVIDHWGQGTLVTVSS
VL: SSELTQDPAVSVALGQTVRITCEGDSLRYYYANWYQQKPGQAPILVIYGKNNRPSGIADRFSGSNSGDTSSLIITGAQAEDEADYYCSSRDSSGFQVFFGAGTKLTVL

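The parent was found by panning a naive human phage display library on the peptide. Variants in AAYL52 differ from the parent at up to three CDR positions; double and triple changes were sampled at random. AlphaSeq pools MATa yeast showing the antibodies with MATalpha yeast showing the peptide. The frequency of each diploid, read from paired DNA barcodes, reflects how well the two displayed proteins bind. Scores were corrected for input abundance and mapped to Kd with protein pairs of known affinity run in the same pool. Mating was done three times.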

Variants are written as CDR1, CDR2 and CDR3 of the light chain (limits as in the source). Parent: EGDSLRYYYAN, GKNNRPS, SSRDSSGFQVF.
Every variant below is changed at Y29 of the VL (sequential numbering).
Values are apparent Kd, the geometric mean of the replicates that gave a signal; lower means stronger binding.
Where no diploid with the target was found in any replicate, the entry reads "not detected": below detection, most likely a poor binder, though not proof of it.
Background: pairings of library AAYL52 with three empty control strains gave a value in 28% of cases (median 8.2 µM, 5th percentile 800 nM). Values in that range, when seen in few replicates, are hard to tell from nonspecific mating. For each scFv, signals with the empty controls are counted beside the result.

CDR-L1	CDR-L2	CDR-L3	apparent Kd	seen in	signal with controls
GGDSLRLYYAN	GKNNRPS	SSRDSSMFQVF	6.1 µM	2 of 3	2 of 9
EGDSNRGYYAN	CKNNRPS	SSRDSSGFQVF	14 µM	2 of 3	5 of 9
EGDSLRGYYAL	GKNNRPS	SSRDSSGFDVF	not detected	0 of 3	0 of 9
EGDSLRNYYAN	CKNNRPS	SSRDSSGFQVQ	12 µM	1 of 3	0 of 9
EGDSLRGYYAN	AKNNRPS	SSRDSSGFQKF	730 nM	3 of 3	5 of 9
ELDSQRNYYAN	GKNNRPS	SSRDSSGFQVF	240 nM	3 of 3	4 of 9
EGTSLRWYYAN	GKNNRPS	SSRFSSGFQVF	11 µM	3 of 3	3 of 9
EGDSLRMYYAN	GKNNRPS	SSRDWSGTQVF	2.0 µM	3 of 3	6 of 9
EGDSCRHYYAN	GTNNRPS	SSRDSSGFQVF	not detected	0 of 3	2 of 9
EGDSLRAYYAN	GKNNRPQ	SSRDSSNFQVF	100 nM	3 of 3	5 of 9
EEDSLRGYYAN	GKNNRQS	SSRDSSGFQVF	110 µM	2 of 3	2 of 9
EGDSLRGYYAN	GKNNRES	SSRDSMGFQVF	83 nM	3 of 3	1 of 9
EGDSLRAYYAN	GKNHRPS	SSRDSSGFQVE	300 nM	3 of 3	3 of 9
EGDSLRPYYAN	GKNNRPS	SSRDSSGFQKF	650 nM	3 of 3	4 of 9
EGDSLRWYYAN	GKNNNPS	SSRDCSGFQVF	1.1 µM	1 of 3	1 of 9
EGDSLRMYYAN	GKYNRPS	SSYDSSGFQVF	7.3 µM	2 of 3	4 of 9
EQDSLRAYYAN	KKNNRPS	SSRDSSGFQVF	2.8 µM	1 of 3	1 of 9
EGDSLRQYYFN	GKNNRPS	SSRDSSRFQVF	1.4 µM	2 of 3	2 of 9
EGDSLRFYYVN	GKNNRPS	SSRDSRGFQVF	not detected	0 of 3	1 of 9
EGDSLRMYYAN	GHNNRPS	SSRASSGFQVF	2.9 µM	3 of 3	5 of 9
EGDCLRNYYAN	GKNNRPS	SSFDSSGFQVF	5.7 µM	3 of 3	4 of 9
EGDSLRIYYAN	LKNNRPS	SSRDSSGFQVQ	6.5 µM	2 of 3	3 of 9
EGASLRPYYAN	GKNNRPS	SHRDSSGFQVF	210 nM	3 of 3	5 of 9
ESDSLRFTYAN	GKNNRPS	SSRDSSGFQVF	580 nM	3 of 3	3 of 9
EGDSLRDYYAN	EKNNRPS	SSCDSSGFQVF	not detected	0 of 3	0 of 9
EGDSLRRYYAN	GKNNRPS	SSRDVSDFQVF	1.3 µM	2 of 3	1 of 9
EGDSLRSYYAN	GNKNRPS	SSRDSSGFQVF	470 nM	3 of 3	5 of 9
EGDSLRHYYAN	GKNNRPS	SSRRSSGFQVF	310 nM	3 of 3	1 of 9
EGDSLRGYYAN	GKNNRPS	SSRDRSSFQVF	15 nM	3 of 3	3 of 9
EGDSLRLYYAN	GKNERPS	SSTDSSGFQVF	1.1 µM	3 of 3	5 of 9
EGDSSRKYYAN	GKNNRPS	SSRDVSGFQVF	1.1 µM	3 of 3	5 of 9
EGDSLRWLYAN	GKNNRPS	SSRDSSGFQVV	17 µM	2 of 3	1 of 9
EGDSRRWYYAN	GKPNRPS	SSRDSSGFQVF	3.0 µM	2 of 3	3 of 9
EQDSLRVNYAN	GKNNRPS	SSRDSSGFQVF	440 nM	3 of 3	2 of 9
EGDSERIYYAN	GKNNRPS	SSRWSSGFQVF	160 µM	1 of 3	2 of 9
EGDSLRIYYAN	GKNNRPC	SVRDSSGFQVF	4.2 µM	3 of 3	4 of 9
EGDSLRFYYAN	GKNNRPS	SSRDSSGQQVF	400 nM	3 of 3	0 of 9
EKDSLRGYYAN	GKNNRPS	NSRDSSGFQVF	590 nM	1 of 3	3 of 9
EGDSLRTYYAN	GKNNAPS	SSRDSSGFQVF	590 nM	3 of 3	4 of 9
EGDSLREYYAN	NKSNRPS	SSRDSSGFQVF	7.5 µM	3 of 3	3 of 9
EGDSLRCYYLN	GKNNRPS	SRRDSSGFQVF	1.2 µM	3 of 3	0 of 9
EGDSLRQYYAN	GKNNRPE	SSRYSSGFQVF	42 µM	1 of 3	1 of 9
EGDSLRPYYAN	GKNNRPS	SSRDSSGFQNF	360 nM	3 of 3	1 of 9
EGDSLRCDYAN	GKNNRPS	SSRDSLGFQVF	2.3 µM	2 of 3	2 of 9
EGDSLRQYYAN	GKNNRPS	SSHDSSGRQVF	2.8 µM	3 of 3	1 of 9
EGDSLRNYYAN	GYNNRPS	SSRDYSGFQVF	150 nM	3 of 3	4 of 9
EGDSLRQYYAN	GKNTRPS	SRRDSSGFQVF	770 nM	3 of 3	2 of 9
EGDSLWRYYAN	GKNNRPS	SSRDSSGIQVF	660 nM	3 of 3	2 of 9
EGDSLRPYYAN	GKNNRPR	SSRDSSGFQTF	1.6 µM	2 of 3	3 of 9
EGDSLRAYYAN	GKNNRPS	SSRDSQGFQVF	170 nM	3 of 3	2 of 9
EGDSLREYDKN	GKNNRPS	SSRDSSGFQVF	680 nM	3 of 3	2 of 9
EGDSLRVYYAN	GKTNRPS	SSRDSSGFIVF	20 µM	2 of 3	5 of 9
EGDSLRFGYAN	GKNNRPS	PSRDSSGFQVF	42 nM	3 of 3	4 of 9
EGTSLRQYYAN	GKNNRPS	SSRDTSGFQVF	440 nM	3 of 3	3 of 9
EGDTLRMYYAN	GKNWRPS	SSRDSSGFQVF	2.9 µM	3 of 3	0 of 9
EGDSLRLYYAN	GKNNRPS	SSRAVSGFQVF	9.2 µM	2 of 3	2 of 9
EGEPLRIYYAN	GKNNRPS	SSRDSSGFQVF	1.2 µM	3 of 3	3 of 9
EGDSLRPYYAN	GKNNRPS	SSGDSSGFQVV	32 µM	1 of 3	0 of 9
EGDSLRGYYAN	GKNNRPS	SSRQSSGFWVF	38 nM	3 of 3	2 of 9
EGDSLRNYYAN	GKNNRVS	SSRDSSKFQVF	20 µM	1 of 3	3 of 9
EGDSLRAYYAN	GKNNRPS	SSRLSSGFQVY	430 nM	3 of 3	3 of 9
EGDSLRLYYAN	GKNNRPS	SSRDSSGHSVF	2.1 µM	3 of 3	1 of 9
EGDSMRIYYAN	GKNNRPS	SSRDSSGFPVF	49 µM	2 of 3	2 of 9
EGDSLRPYYAN	HKNNRPS	SSRDSWGFQVF	not detected	0 of 3	1 of 9
HGDSQRDYYAN	GKNNRPS	SSRDSSGFQVF	360 nM	3 of 3	3 of 9
EGGSLRTYYAN	GKNNRPS	SSRDSCGFQVF	1.3 µM	3 of 3	5 of 9
EGDSLRDHYAN	GKNNRPS	SSRDSKGFQVF	10 nM	3 of 3	4 of 9
EGDSLRWYYSN	GKNNRPS	SSRDSSGCQVF	5.4 µM	3 of 3	3 of 9
EGDSLQQYYAN	GKNNRPS	SSRMSSGFQVF	14 µM	1 of 3	0 of 9
EGDSLIVYYAN	GKNNRPS	SSRDSSHFQVF	870 nM	1 of 3	1 of 9
EGDSLREYYAN	GKNNRPI	SSRDSLGFQVF	17 µM	1 of 3	2 of 9
EGDSLREYYAN	GKCNRPS	NSRDSSGFQVF	4.8 µM	3 of 3	3 of 9
EGSSFRFYYAN	GKNNRPS	SSRDSSGFQVF	1.6 µM	3 of 3	1 of 9
EGDSLRSYYAN	GKNNRPS	DSRDSSGWQVF	1.0 µM	3 of 3	2 of 9
EGDSPRQYYVN	GKNNRPS	SSRDSSGFQVF	1.8 µM	3 of 3	5 of 9
EGDSLRMYTLN	GKNNRPS	SSRDSSGFQVF	100 µM	3 of 3	3 of 9

For reference, 8 entries of the list once more:

CDR-L1,CDR-L2,CDR-L3,apparent Kd,seen in,signal with controls
EGDSLRQYYFN,GKNNRPS,SSRDSSRFQVF,1.4 µM,2 of 3,2 of 9
EGDSLRPYYAN,HKNNRPS,SSRDSWGFQVF,not detected,0 of 3,1 of 9
EGSSFRFYYAN,GKNNRPS,SSRDSSGFQVF,1.6 µM,3 of 3,1 of 9
EGDSLRAYYAN,GKNNRPQ,SSRDSSNFQVF,100 nM,3 of 3,5 of 9
EGDSLRWLYAN,GKNNRPS,SSRDSSGFQVV,17 µM,2 of 3,1 of 9
EKDSLRGYYAN,GKNNRPS,NSRDSSGFQVF,590 nM,1 of 3,3 of 9
EGDCLRNYYAN,GKNNRPS,SSFDSSGFQVF,5.7 µM,3 of 3,4 of 9
EGDSLREYYAN,GKNNRPI,SSRDSLGFQVF,17 µM,1 of 3,2 of 9

From the AlphaSeq antibody data of Engelhart et al. 2022 (doi:10.1038/s41597-022-01779-4), copy in the FLAb collection.